Here are results for 2 compounds from PubChem BioAssay (NCATS).

Amino acid sequences for entries named in this document (tags omitted). A change or cut given only in a name is not applied to a line headed by its entry.
UniProt A8B2U2: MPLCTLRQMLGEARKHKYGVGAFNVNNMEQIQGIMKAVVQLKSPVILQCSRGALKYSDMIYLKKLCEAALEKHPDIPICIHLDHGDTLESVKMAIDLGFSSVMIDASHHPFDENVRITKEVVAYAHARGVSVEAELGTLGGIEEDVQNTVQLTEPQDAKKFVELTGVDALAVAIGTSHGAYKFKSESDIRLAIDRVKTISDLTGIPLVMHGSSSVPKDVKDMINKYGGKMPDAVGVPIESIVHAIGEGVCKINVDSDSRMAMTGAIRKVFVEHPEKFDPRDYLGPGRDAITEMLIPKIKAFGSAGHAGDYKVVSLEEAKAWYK
UniProt P00883: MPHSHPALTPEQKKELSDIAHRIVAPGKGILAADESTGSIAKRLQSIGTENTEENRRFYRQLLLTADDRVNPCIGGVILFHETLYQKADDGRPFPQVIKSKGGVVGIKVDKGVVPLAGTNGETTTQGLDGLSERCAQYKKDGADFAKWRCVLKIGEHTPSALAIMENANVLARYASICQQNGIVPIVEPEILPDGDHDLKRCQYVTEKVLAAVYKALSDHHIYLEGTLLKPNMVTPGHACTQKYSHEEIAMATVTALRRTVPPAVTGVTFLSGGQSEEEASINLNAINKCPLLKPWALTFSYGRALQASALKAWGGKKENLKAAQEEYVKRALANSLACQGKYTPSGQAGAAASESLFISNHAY

Experiment [1] in a line: qHTS Assay for Inhibitors of Fructose-1,6-bisphosphate Aldolase from Giardia Lamblia: Giardia lamblia growth inhibition (AID 2785). Also: % is scaled to controls: 0 for no effect and ±100 for the full control effect; nearly all actives have a fitted effect of over 70% in size. Conditions: Giardia lamblia trophozoite growth inhibition; at 38.3 µM (top of the series). The method in brief:
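Whole-parasite growth test: Giardia WB trophozoites in TYI-S-33 (pH 7.0), 100 per well, incubated 48 h at 37C with compound. ATP content was read by ATPlite luminescence.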
Background: Quantitative high-throughput screening tests each substance at several concentrations.

A short description of experiment [2]: qHTS Assay for Inhibitors of Fructose-1,6-bisphosphate Aldolase from Giardia Lamblia: Mammalian cellular toxicity (AID 2786).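 Also: compound exposure lasted 48 h before reading; % is scaled to controls: 0 for no effect and ±100 for the full control effect; nearly all actives have a fitted effect of over 60% in size.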 Conditions: mammalian cell viability counter-screen; at 57.5 µM (top of the series). The method in brief:
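Mammalian cytotoxicity surrogate: Chinese hamster ovary cells exposed to compound for 48 h at 37 °C. Cellular ATP then measured with ATPlite reagent, 20 min incubation.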

Experiment [3] concerns the target Fructose-bisphosphate aldolase (Giardia intestinalis (strain ATCC 50803 / WB clone C6)) (UniProt A8B2U2). The experiment can be described thus: qHTS Assay for Inhibitors of Fructose-1,6-bisphosphate Aldolase from Giardia Lamblia: Primary screen confirmation (AID 2787).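 Also: aldolase product measured through coupled diaphorase step turning resazurin into fluorescent resorufin; % is scaled to controls: 0 for no effect and ±100 for the full control effect; nearly all actives have a fitted effect of over 45% in size.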 Conditions: purified Giardia aldolase enzyme activity; at 57.5 µM (top of the series). In outline:
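Confirmation of primary hits by qHTS up to 57.5 uM final compound. Enzyme at 40 nM with 30 uM ZnCl2, 10 min RT pre-incubation, then substrate/coupling/resorufin-forming detection mix for 20 min before fluorescence read at 525/598 nm.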

Experiment [4] addresses Fructose-bisphosphate aldolase A (Oryctolagus cuniculus) (UniProt P00883). The experiment can be described thus: qHTS Assay for Inhibitors of Fructose-1,6-bisphosphate Aldolase from Giardia Lamblia: Rabbit FBPA Selectivity (AID 2794). Also: % is scaled to controls: 0 for no effect and ±100 for the full control effect; nearly all actives have a fitted effect of over 60% in size. Conditions: Rabbit muscle FBPA enzyme inhibition, selectivity counter-screen; at 57.5 µM (top of the series). The method in brief:
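Selectivity was assessed on rabbit Class I enzyme by qHTS. Product formation was detected by AmpLite Red fluorescence (525/598 nm) after a 20 min RT reaction started with substrate, following 10 min compound preincubation at up to 57.5 uM final.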

A short description of experiment [5]: qHTS Assay for Inhibitors of Fructose-1,6-bisphosphate Aldolase from Giardia Lamblia: Coupling assay counterscreen confirmation (AID 2795). Also: % is scaled to controls: 0 for no effect and ±100 for the full control effect; nearly all actives have a fitted effect of over 55% in size. Conditions: GAPDH coupling enzyme counterscreen, biochemical; at 57.5 µM (top of the series). In outline:
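Readings at 525 nm excitation and 598 nm emission follow a two-step room-temperature protocol: 10 min of compound (up to 57.5 uM final) with coupling enzyme reagent, then 20 min with substrate and AmpLite Red detection reagent.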

Experiment [6] is described as follows: Primary qHTS for inhibitors of nuclear receptor binding SET domain protein 2 (NSD2) in an isogenic RCH-ACV NSD2 p.E1099K mutant (9B) (AID 1645876). Also: potency is read from the fitted curve at half-maximal effect; nearly all actives have a fitted effect of over 70% in size.
Experiment [7] in a line: Primary qHTS for inhibitors of nuclear receptor binding SET domain protein 2 (NSD2) in an RCH-ACV wild type WT cells (2C) (AID 1645877). Also: potency is read from the fitted curve at half-maximal effect; nearly all actives have a fitted effect of over 70% in size. From the text: Assay Provider: Jonathan D. Licht, MD
University of Florida College of Medicine, Gainesville, FL
Mutations in epigenetic regulators are common in relapsed pediatric acute lymphoblastic leukemia (ALL). Here, we uncovered the mechanism underlying the relapse of ALL driven by an activating mutation of the NSD2 histone methyltransferase (p.E1099K). […] Correction of this mutation restored glucocorticoid sensitivity. The transcriptional response to glucocorticoids was blocked in NSD2 mutant cells due to depressed glucocorticoid receptor (GR) levels and the failure of glucocorticoids to autoactivate GR expression. […] Pre-treatment of NSD2 p.E1099K cell lines and PDX samples with PRC2 inhibitors reversed glucocorticoid resistance in vitro and in vivo.
High-throughput drug screening of isogenic RCH-ACV cell lines was performed at the National Center for Advancing Translational Science (NCATS), National Institutes of Health as previously described (1). Briefly, isogenic RCH-ACV NSD2 p.E1099K mutant (9B) and WT cells (2C) were plated at 500 cells/well in a 1536-well plate with a 72-hour incubation with compounds prior to addition of CellTiter-Glo to assess cell viability. NCATS libraries screened include: NPC, MIPE 5.0, Kinase and NPACT. […]

The nature of experiment [8]: qHTS drug screen for cell cycle checkpoint inhibitors in PARPi-resistant BRCA-mutant ovarian cancer cell lines. (AID 1963452; calls by dose curve). Conditions: PEO1/OlaR viability, CellTiter-Glo luminescence, 96 h; active compounds read low. The method in brief:
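PEO1, PEO4 and PEO1/OlaR ovarian cancer cells, 600 per well, exposed 96 h at 37C to a dilution series. Viability read by CellTiter-Glo luminescence, normalized to DMSO and empty wells; activity summarized as Z-AUC.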

The entries are a selection whose mix differs from that of the whole data set. Inconclusive results are not listed. Active and inactive are the calls of the source. Unless noted, calls follow the shape of the dose curve; as a rule, active = well fitted curve in the direction sought with a large enough effect; inconclusive = small, poorly fitted or top-dose-only effect, or another doubt; inactive = no such curve, though single readings can be large; an effect the other way counts as inactive or inconclusive.

In the case of `Cc1cc(SC(NC(=O)c2ccc(F)cc2)C(Cl)(Cl)Cl)ncn1` (stereo not drawn), the activity change, negative = inhibition in experiment [1] is inactive: -16.7%; in experiment [3] it was inactive: -2.77%; in experiment [5], inactive: -5.03%. Further, the viability change, negative = toxicity in experiment [2] was inactive: -13.6%. Besides, the activity, negative = inhibition in experiment [4] was inactive: -1.99%.

For `N[C@@H](Cc1ccc([N+]([O-])(CCCl)CCCl)cc1)C(=O)O`, the Potency is active: 3.72 µM in experiment [6] and active: 3.32 µM in experiment [7]. Further, the Z-AUC in experiment [8] was inactive: 0.317.
